Values of other authors, collected in patent US7767232B2, “Control of nitric oxide bioactivity by perfluorocarbons” (New York University, priority 2002, dated 2010).

Details: Nedospasov et al., 2000; cited from earlier work

serum albumin: most abundant transport and depot protein in the circulation
partition coefficient QNO: ~120
